Where two headings read alike, the source gives them in different places.
What was measured:
[1] = target: T1, human β2-adrenergic receptor (Homo sapiens, UniProt P07550); assay: Test Case 3-A: human β2-adrenergic receptor agonist activity; type: cell-based; settings: maximum response of isoproterenol = 100%
[2] = target: T2, human β1-adrenergic receptor (Homo sapiens, UniProt P08588); assay: Test Case 2-A: human β1-adrenergic receptor agonist activity; type: cell-based; settings: for β1 receptor I.A.: maximum response of isoproterenol = 100%
[3] = target: T2, human β1-adrenergic receptor; assay: Test Case 2-B: human β1-adrenergic receptor agonist activity; type: cell-based; settings: maximum response of isoproterenol = 100%
[4] = target: T3, human α1A-adrenergic receptor (Homo sapiens, UniProt P35348); assay: Test Case 4-B: human α1A-adrenergic receptor agonist activity (Cerep cellular functional GPCR, alpha 1A); type: cell-based; settings: concentration 10 μM; for α1 receptor % of Control Agonist Response, Control; Epinephrine: epinephrine = 100%; for α1 receptor % of Control Agonist Response, Control; Norepinephrine: norepinephrine = 100%
Description: Measurement of Human α1A-Adrenergic Receptor Agonist Activity
The human α1A-adrenergic receptor agonist activity] can be measured by […] Functional GPCR·Gs, alpha 1A (Ref. 722-36a) listed on p. 52 of the Cerep 2008 CATALOG IN VITRO PHARMACOLOGY & ADME-TOX.

Sequences of proteins named here, by UniProt entry; tags and fusion partners are left off.
UniProt P08588, whole entry: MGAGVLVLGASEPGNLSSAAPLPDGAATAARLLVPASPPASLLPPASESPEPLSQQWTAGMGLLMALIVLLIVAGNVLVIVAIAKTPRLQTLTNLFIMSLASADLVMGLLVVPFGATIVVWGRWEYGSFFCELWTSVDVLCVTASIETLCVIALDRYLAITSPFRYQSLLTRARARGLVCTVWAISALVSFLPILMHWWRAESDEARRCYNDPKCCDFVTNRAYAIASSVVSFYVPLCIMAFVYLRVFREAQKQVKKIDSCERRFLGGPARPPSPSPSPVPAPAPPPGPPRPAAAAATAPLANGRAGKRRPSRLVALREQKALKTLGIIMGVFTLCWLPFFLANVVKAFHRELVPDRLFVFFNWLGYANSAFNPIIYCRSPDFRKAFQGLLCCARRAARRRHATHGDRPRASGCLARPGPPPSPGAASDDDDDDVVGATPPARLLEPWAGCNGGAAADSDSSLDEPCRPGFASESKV
UniProt P35348, whole entry: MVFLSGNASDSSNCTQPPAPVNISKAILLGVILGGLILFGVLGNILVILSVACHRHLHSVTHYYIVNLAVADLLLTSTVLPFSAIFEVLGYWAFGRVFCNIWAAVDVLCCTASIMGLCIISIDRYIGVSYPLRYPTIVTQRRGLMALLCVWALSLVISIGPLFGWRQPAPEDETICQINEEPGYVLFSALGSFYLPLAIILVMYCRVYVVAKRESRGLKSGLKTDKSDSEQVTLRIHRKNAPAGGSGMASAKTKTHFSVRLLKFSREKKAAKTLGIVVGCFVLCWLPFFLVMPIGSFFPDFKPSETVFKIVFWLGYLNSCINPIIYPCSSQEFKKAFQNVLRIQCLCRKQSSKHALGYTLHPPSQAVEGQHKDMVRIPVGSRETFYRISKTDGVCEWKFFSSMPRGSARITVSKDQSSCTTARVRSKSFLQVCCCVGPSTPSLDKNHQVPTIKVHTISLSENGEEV
UniProt P13945, whole entry: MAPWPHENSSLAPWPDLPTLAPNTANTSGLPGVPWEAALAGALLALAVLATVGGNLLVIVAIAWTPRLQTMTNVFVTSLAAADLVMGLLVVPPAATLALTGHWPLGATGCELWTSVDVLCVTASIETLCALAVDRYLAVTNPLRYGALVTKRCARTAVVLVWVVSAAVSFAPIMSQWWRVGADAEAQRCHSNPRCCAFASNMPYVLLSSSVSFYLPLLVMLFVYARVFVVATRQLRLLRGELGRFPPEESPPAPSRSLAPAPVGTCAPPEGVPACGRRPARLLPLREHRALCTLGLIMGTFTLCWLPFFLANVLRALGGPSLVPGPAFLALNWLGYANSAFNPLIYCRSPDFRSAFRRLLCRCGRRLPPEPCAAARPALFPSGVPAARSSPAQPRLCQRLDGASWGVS
UniProt P35368, whole entry: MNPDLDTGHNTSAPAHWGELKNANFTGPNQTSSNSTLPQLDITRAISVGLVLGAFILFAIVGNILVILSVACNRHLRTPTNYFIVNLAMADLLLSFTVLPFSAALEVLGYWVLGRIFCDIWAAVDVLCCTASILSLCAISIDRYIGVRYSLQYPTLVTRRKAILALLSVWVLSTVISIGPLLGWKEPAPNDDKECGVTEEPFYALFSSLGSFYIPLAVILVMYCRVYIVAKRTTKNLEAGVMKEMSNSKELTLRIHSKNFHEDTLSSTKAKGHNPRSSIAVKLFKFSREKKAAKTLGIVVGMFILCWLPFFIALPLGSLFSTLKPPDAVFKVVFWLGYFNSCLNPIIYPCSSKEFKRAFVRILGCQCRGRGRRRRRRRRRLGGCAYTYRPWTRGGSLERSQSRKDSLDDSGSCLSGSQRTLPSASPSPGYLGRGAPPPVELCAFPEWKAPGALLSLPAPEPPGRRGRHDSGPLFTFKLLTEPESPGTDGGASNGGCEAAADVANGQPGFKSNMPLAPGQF
UniProt P25100, whole entry: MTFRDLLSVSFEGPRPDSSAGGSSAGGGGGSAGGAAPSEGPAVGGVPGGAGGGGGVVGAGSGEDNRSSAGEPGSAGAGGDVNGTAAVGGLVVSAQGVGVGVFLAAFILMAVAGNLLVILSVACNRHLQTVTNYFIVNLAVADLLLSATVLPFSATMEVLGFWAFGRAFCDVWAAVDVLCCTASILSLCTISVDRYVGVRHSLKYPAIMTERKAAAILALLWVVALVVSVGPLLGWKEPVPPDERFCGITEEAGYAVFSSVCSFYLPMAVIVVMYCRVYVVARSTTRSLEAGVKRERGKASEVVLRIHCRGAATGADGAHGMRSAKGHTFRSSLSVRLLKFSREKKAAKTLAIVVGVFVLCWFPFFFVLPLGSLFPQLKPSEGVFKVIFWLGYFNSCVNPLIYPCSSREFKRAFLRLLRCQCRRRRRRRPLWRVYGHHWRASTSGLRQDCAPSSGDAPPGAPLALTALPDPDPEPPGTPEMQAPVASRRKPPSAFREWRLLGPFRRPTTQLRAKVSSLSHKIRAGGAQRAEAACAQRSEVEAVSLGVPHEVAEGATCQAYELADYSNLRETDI

[5] = target: T4, human β3-adrenergic receptor (Homo sapiens, UniProt P13945); assay: Test Case 1-B: human β3-adrenergic receptor agonist activity (cAMP-Screen, 96-well); type: cell-based; settings: for β3 receptor I.A.: maximum response of isoproterenol = 100%
[6] = target: T1, human β2-adrenergic receptor; assay: Test Case 3-C: human β2-adrenergic receptor agonist activity (Cerep cellular functional GPCR, beta 2); type: cell-based; settings: concentration 10 μM, isoproterenol = 100%
[7] = target: human α1B-adrenergic receptor (Homo sapiens, UniProt P35368); assay: Test Case 5: human α1B-adrenergic receptor agonist activity (HEK293, SRE-luciferase); type: cell-based; settings: judged from results of Test Case 5
Description: Measurement of Human α1B-Adrenergic Receptor Agonist Activity
(§1) For the human α1B-adrenergic receptor agonist activity, a human α1B gene inserted into pcDNA3.1 (Invitrogen) and a p-SRE-Luc plasmid (Strata gene) of a luciferase gene expression vector are transiently transfected into HEK293 cells. 40,000 cells/well are sown in 96-well plates and cultured overnight at 37° C. under 5% CO2 in DMEM medium containing 2% fetal calf serum. A solution prepared by dissolving the test compound in DMSO and subsequently diluting it with medium is added to the cells and reacted for a number of hours. The medium is suctioned off, and 30 μL/well of PicaGene LT2.0 (Toyo Ink) is added. The luminescence value is measured 30 minutes later. Taking the maximum response of phenylephrine, the positive control, as 100%, the ratio of the maximum response of each test compound is calculated as the intrinsic activity [I.A. (%)].

[8] = target: T2, human β1-adrenergic receptor; assay: Test Case 2-C: human β1-adrenergic receptor agonist activity (Cerep cellular functional GPCR, beta 1); type: cell-based; settings: concentration 10 μM, isoproterenol = 100%
[9] = target: human α1D-adrenergic receptor (Homo sapiens, UniProt P25100); assay: Test Case 6: human α1D-adrenergic receptor agonist activity (HEK293, SRE-luciferase); type: cell-based; settings: judged from results of Test Case 6
Description: Measurement of Human α1D-Adrenergic Receptor Agonist Activity
as §1, with “α1D-adrenergic” for “α1B-adrenergic”, “α1D” for “α1B”, “temporarily” for “transiently”

[10] = target: T4, human β3-adrenergic receptor; assay: Test Case 1-A: human β3-adrenergic receptor agonist activity (cAMP-EIA, 24-well); type: cell-based; settings: maximum response of isoproterenol = 100%
[11] = system: pentobarbital-anesthetized rats; assay: Test Case 9: effects on the blood pressure and heart rate in pentobarbital-anesthetized rats; type: in vivo, rat; settings: anesthetized male SD rats; 3 mg/kg intravenous over 30 seconds; maximum change, mean±standard deviation
[12] = target: T3, human α1A-adrenergic receptor; assay: Test Case 4-A: human α1A-adrenergic receptor agonist activity (HEK293, Ca flux, Fura-2); type: cell-based; settings: for α1A receptor I.A.: maximum response of norepinephrine = 100%
[13] = target: T1, human β2-adrenergic receptor; assay: Test Case 3-B: human β2-adrenergic receptor agonist activity; type: cell-based; settings: maximum response of isoproterenol = 100%, tested form: HCl

Structure (SMILES)	β2 receptor I.A. [1] [%]	β1 receptor I.A. [2] [%]	α1 receptor % of Control Agonist Response, Control; Epinephrine [4] [%]	α1 receptor % of Control Agonist Response, Control; Norepinephrine [4] [%]	β2 receptor % of Control Agonist Response [6] [%]	β1 receptor % of Control Agonist Response [8] [%]	β3 receptor I.A. [10] [%]	increase in MBP (%) [11] [%]	α1A receptor I.A. ([12]; Table 3) [%]	α1A receptor I.A. ([12]; Table 4) [%]	also measured
COc1n[nH]c2cc(OCCNC[C@H](O)c3cccc(NS(C)(=O)=O)c3)ccc12	23	7.2	62	54	8.2	13	54	12.8 ± 4.4	60	60	β1 receptor I.A. [3]: 2.4%; β3 receptor I.A. [5]: 67%; EC50 ([5]; read-out: β3 receptor EC50, CHO cells, cAMP): 40 nM; α1B agonist activity [7]: does not have α1B agonist activity; α1D agonist activity [9]: does not have α1D agonist activity
Cc1n[nH]c2cc(OCCNC[C@H](O)c3ccc(Cl)c(NS(C)(=O)=O)c3)ccc12	15	22	59	51	17	44	52	12.6 ± 4.1	59	59	EC50 ([2]; read-out: β1 receptor EC50, CHO cells, cAMP): 140 nM; EC50 ([12]; read-out: α1A receptor EC50, HEK293 cells, Ca flux, Table 3): 39 nM; EC50 ([12]; read-out: α1A receptor EC50, HEK293 cells, Ca flux, Table 4): 39 nM
CN(C)C(=O)CCc1n[nH]c2cc(OCCNC[C@H](O)c3cccc(NS(=O)(=O)c4cccc(N)c4)c3)ccc12	–	–	–	–	–	–	–	–	–	–	β1 receptor I.A. ([3]; tested form: HCl): 19%; β3 receptor I.A. ([5]; tested form: HCl): 104%; EC50 ([5]; read-out: β3 receptor EC50, CHO cells, cAMP, tested form: HCl): 0.2 nM; β2 receptor I.A. [13]: 6%; α1A receptor I.A. ([12]; Table 4, tested form: HCl): 0%
